These results are taken from paper PMC5643545, “A novel library of -arylketones as potential inhibitors of α-glucosidase: Their design, synthesis, in vitro and in vivo studies” (Scientific Reports, 2017).

The chains behind the UniProt entries cited, without tags or fusion partners. Residues count along the entry.
UniProt P53341, whole entry: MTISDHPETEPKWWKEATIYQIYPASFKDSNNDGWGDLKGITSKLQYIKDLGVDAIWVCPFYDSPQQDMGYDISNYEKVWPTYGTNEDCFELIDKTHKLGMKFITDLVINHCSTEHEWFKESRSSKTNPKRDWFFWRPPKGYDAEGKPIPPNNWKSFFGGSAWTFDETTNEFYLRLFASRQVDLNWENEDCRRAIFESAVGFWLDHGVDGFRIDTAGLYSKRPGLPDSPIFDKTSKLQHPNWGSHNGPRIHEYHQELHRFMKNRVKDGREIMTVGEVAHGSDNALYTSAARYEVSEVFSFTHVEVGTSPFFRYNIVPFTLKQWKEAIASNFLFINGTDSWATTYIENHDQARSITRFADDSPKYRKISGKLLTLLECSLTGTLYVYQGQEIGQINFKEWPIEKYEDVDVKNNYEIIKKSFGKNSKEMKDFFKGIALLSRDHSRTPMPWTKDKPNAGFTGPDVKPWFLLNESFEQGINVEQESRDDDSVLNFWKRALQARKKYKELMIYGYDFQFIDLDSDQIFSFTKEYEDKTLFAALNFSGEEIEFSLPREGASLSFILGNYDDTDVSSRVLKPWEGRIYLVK
UniProt Q2KIM0, 23-468 limits assumed: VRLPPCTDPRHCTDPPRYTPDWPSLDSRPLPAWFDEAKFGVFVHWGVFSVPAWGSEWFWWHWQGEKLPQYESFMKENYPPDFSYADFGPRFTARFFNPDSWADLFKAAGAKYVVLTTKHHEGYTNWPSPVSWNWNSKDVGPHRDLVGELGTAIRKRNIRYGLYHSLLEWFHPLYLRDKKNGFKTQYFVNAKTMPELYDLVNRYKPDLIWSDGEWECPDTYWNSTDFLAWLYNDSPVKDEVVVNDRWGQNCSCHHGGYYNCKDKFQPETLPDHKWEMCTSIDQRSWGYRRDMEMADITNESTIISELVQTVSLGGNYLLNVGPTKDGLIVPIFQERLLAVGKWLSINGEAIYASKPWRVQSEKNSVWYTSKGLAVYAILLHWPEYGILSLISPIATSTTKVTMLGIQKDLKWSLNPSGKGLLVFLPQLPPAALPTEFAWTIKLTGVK
UniProt C0HJB3, whole entry: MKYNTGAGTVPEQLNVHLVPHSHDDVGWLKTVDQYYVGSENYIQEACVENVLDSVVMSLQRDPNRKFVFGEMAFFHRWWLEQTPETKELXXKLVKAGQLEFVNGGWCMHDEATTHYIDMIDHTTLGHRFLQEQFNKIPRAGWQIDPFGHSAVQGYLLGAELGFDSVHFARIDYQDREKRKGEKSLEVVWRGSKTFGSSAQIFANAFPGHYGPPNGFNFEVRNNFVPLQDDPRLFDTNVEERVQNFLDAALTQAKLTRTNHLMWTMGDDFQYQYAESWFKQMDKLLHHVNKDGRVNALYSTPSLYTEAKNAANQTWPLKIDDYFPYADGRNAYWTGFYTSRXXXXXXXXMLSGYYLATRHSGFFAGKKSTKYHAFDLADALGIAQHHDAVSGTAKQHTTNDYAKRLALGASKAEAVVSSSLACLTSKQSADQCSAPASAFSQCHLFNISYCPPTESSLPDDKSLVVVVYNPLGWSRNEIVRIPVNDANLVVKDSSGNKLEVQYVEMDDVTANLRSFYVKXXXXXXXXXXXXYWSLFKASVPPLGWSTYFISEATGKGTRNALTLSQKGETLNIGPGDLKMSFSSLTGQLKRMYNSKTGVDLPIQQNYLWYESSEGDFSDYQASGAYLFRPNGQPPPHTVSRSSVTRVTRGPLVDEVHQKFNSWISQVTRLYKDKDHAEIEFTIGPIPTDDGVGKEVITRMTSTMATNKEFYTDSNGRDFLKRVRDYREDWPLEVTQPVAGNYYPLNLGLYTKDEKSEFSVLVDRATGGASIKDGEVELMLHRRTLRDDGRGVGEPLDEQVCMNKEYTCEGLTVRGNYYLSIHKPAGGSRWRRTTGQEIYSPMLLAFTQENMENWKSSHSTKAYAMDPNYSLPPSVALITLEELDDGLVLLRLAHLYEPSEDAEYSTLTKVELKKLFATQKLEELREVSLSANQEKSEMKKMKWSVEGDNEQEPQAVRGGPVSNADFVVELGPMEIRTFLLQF

Some results are limits rather than exact numbers.

Series [1] deals with T1, α-glucosidase (yeast origin) (Saccharomyces cerevisiae, UniProt P53341). As to the kind of experiment: α-glucosidase (yeast) inhibition assay, PNPG substrate, 96-well. Format: biochemical. The settings on record: read-out: IC50s α-glucosidase (yeast), two independent assays, performed in duplicate, 37 °C, 10 min.
Series [2] has as its target α-fucosidase (bovine kidney origin) (Bos taurus, UniProt Q2KIM0). As to the kind of experiment: α-fucosidase inhibition assay, 96-well. Format: biochemical. To be noted: read-out: IC50s α-fucosidase (bovine kidney); two independent assays, performed in duplicate. The method, then:
(§1) To assess the inhibitory effect and also the extent of selectivity our library was against α-glucosidase (yeast origin), α-fucosidase (bovine kidney origin) and α-mannosidase (jack bean origin) (in 96-well plates employing 4-nitrophenyl-α-D-glucopyranoside (PNPG) as substrate) (Table 1). The test compounds were dissolved and diluted in dimethyl sulfoxide (DMSO). They were placed in the plate along with the substrate and 10 mM of potassium […] buffer. They were then reacted with appropriate enzymes. After incubating the plates for ten minutes, the absorbance of the wells were measured at […]. The increase in […] (ΔA) was compared against the control i.e. buffer. The inhibitory concentrations (IC50s) were computed using the standard formula (Inhibition% = ΔAcontrol − [ΔAsample/ΔAcontrol] × 100).Acarbose, is used as a standard drug for this assay (Table 1).
(§2) The inhibitory effect of the synthesized compounds on α-glucosidase (yeast origin), α-fucosidase (bovine kidney origin) and α-mannosidase (jack bean origin) inhibitory activity was determined in 96-well plates employing the substrate PNPG and 4-nitrophenyl α-D-glucopyranoside according to the procedure previously reported by Ferreres et al.[42]. Prior to use, all test compounds were solubilised in solvent, dimethylsulfoxide (DMSO), and then further diluted in DMSO to acquire the desired final maximum test concentration. Briefly, each well in 96-well plates contained 100 µL of 2 mM 4-nitrophenyl α-D-glucopyranoside (PNP-G) in 10 mM potassium phosphate buffer (pH 7.2) and different test concentrations (2–10 µM). The reaction was initiated by the addition of 5 µL of the enzyme solution (0.1 IU per well). α-glucosidase (yeast), α-fucosidase (bovine kidney) and α-mannosidase (jack bean) were purchased from Sigma Aldrich, Bangaluru). The plates were incubated at 37 °C for 10 min. The absorbance was measured spectrophotometrically at 430 nm (Spectra Max M5e micro plate reader). The increase in absorbance (ΔA) was compared with that of the control (buffer instead of test compound) to compute the inhibitory concentrations (IC50) which was determined from two independent assays, performed in duplicate. […]

Series [3] addresses α-mannosidase (jack bean origin) (Canavalia ensiformis, UniProt C0HJB3). As to the kind of experiment: α-mannosidase inhibition assay, 96-well. The settings on record: read-out: IC50s α-mannosidase (jack bean); two independent assays, performed in duplicate. Format: biochemical. The method, then: as §1, §2
The target of series [4] is T1, α-glucosidase (yeast origin). As to the kind of experiment: Inhibition kinetics (Lineweaver-Burk and secondary plots). The settings on record: from Y-intercept of the LB plot against concentrations of 3c.
The test system of series [5] is Streptozotocin induced male albino Wistar rats. As to the kind of experiment: In vivo study in Streptozotocin induced diabetic male albino Wistar rats. How it is done:
Male albino Wistar rats weighing between 200–240 gm each were used for the present investigation. The animals were categorized into five groups (I-V) containing three animals each (n = 3). […].
Male albino Wistar rats weighing between 200–240 g each were used for the present investigation. The animals were categorized into five groups (I-V) of three each (n = 3), while each one was housed in a separate cage at a temperature of 24 ± 3 °C, with relative humidity of 65 ± 5% and a 12 h dark-light cycle. They were housed and handled in Biosafety Level 2 (BSL2) animal facilities at University College of Pharmaceutical Sciences, Kakatiya University, Warangal, Andhra Pradesh, India and were provided with a standard pellet diet of laboratory and water with continuous monitoring. Actual drug administration was begun after 72 h of diabetic induction by streptozotocin (STZ). The test drug acarbose, a known α-glucosidase inhibitor were administered orally every day for about 28 days soon after the food was completed by the animal. All protocols were reviewed prior to the start of the experiment by an independent ethical review board at University College of Pharmaceutical Sciences, Kakatiya University and approved to be in accordance with the license for animal experiments issued by The Animal Experiments Inspectorate (License no. 1820/GO/Re/S/CPCSEA).
Diabetes was induced postprandial in the rats (Group II-V)bya single intraperitoneal (I.P) injection of freshly prepared Streptozotocin(60 mgkg^−1 body wt.) in 0.1 M sodium citrate buffer of pH 4.5. Non-diabetic control rats (group-I) were received an I.P injection of buffer alone. Diabetes was confirmed after 72 h of STZ induction by assaying the blood glucose levels. The rats having blood glucose higher than 11 mmol.L^−1 were considered to be diabetic and selected for further study.
For the determination of biochemical parameters, the animals were kept under fasting overnight and peripheral blood was drawn for the assays. The tests were carried out using commercial kits and following the manufacturer’s instructions.At the end of test period of 28 days, the animals under fasting conditions were anesthetized and sacrificed. Blood and tissues were stored for further biochemical and histological studies. Each animal in every group was tested for body weight, blood glucose, insulin, creatinine, Hb1Ac, lipid profiles.
The results were expressed as mean ± standard deviation (M ± SD) for three rats in each group. The differences between treated and control groups were assessed by one way analysis of variance (ANOVA) using MINITAB (Version. 14). The values of p < 0.05 were considered to show the statistical significance.

Take `O=C(Cc1ccccc1Br)c1ccccc1C(=O)N1CCOCC1`: the IC50 in series [1] is 10.2 µM; in series [2], more than 50 µM; in series [3], more than 50 µM.

In the case of `O=C(Cc1ccccc1-c1ccc(F)cc1)c1ccccc1C(=O)N1CCOCC1`, the IC50 is 5.17 µM in series [1], more than 50 µM in series [2] and more than 50 µM in series [3].

In the case of `O=C(Cc1ccccc1-c1ccccc1)c1ccccc1C(=O)N1CCOCC1`, the IC50 in series [1] is 5.15 µM; in series [2] it was more than 50 µM; in series [3] it was 49.4 µM.

With `O=C(Cc1ccccc1Br)c1ccccc1C(=O)N1CCCCC1`, the IC50 is 5.81 µM in series [1], more than 50 µM in series [2] and 36.2 µM in series [3].

As to `Cc1ccc(-c2ccccc2CC(=O)c2ccccc2C(=O)N2CCCC2)cc1`, the IC50 in series [1] is 5.68 µM; in series [2], more than 50 µM; in series [3], more than 50 µM.

Turning to `O=C(Cc1ccccc1-c1ccc(F)cc1)c1ccccc1C(=O)N1CCCC1`, the IC50 in series [1] is 4.93 µM; in series [2] it was 34.4 µM; in series [3] it was more than 50 µM.

`CCN(CC)C(=O)c1ccccc1C(=O)Cc1ccccc1-c1ccc(F)cc1`: the results for the IC50 in series [1], in series [2] and in series [3] were 5.89 µM, more than 50 µM and 44.8 µM, respectively.

With `Cc1ccc(-c2ccccc2CC(=O)c2ccccc2C(=O)N2CCCCC2)cc1`, the IC50 in series [1] was 4.5 µM; in series [2], more than 50 µM; in series [3] it was more than 50 µM. The “Ki΄ (inhibition constant, binding to enzyme-substrate complex)” value in series [4] is 4.6. The same molecule showed an FBG after treatment in series [5] (3.6 mg/kg of 3c, from 300 mg/dl) of 120 mg/dL. The “control over FBG, lower dose in contrast to high-dose” value in series [5] (3.6 mg/kg vs 7.2 mg/kg body weight) is listed as “better control over FBG”. The “level of serum insulin after the treatment period” value in series [5] (STZ diabetic rats, 28 days) is reported as “moderate improvement”. Besides, the toxicity in vivo entry in series [5] (male albino Wistar rats) is on record as “minimal toxicity”. Besides, the “change in fasting blood glucose (FBG) compared to the untreated diabetic rats” value in series [5] (oral administration for about 4 weeks, STZ diabetic rats) is “highly significant (P < 0.001) decrease”. Besides, in series [5] (treated diabetic rats, diabetic control showed moderate periportal inflammation), the “liver histology (periportal inflammation)” value is recorded as “mild inflammation”. For the same molecule, in series [5] (versus shrinkage of β-cells in diabetic control), the “pancreas histology (β-cell population)” value is recorded as “improved β -cell population”.

Regarding `CCN(CC)C(=O)c1ccccc1C(=O)Cc1ccccc1Br`, the IC50 in series [1] is 10.1 µM; in series [2], more than 50 µM; in series [3], more than 50 µM.

For the molecule `O=C(Cc1ccccc1Br)c1ccccc1C(=O)N1CCCC1`, the IC50 is 5.2 µM in series [1], more than 50 µM in series [2] and more than 50 µM in series [3].

As to `O=C(Cc1ccccc1-c1ccccc1)c1ccccc1C(=O)N1CCCC1`, the IC50 was 5.95 µM in series [1], 48.1 µM in series [2] and more than 50 µM in series [3].

For the molecule `O=C(Cc1ccccc1-c1ccc(F)cc1)c1ccccc1C(=O)N1CCCCC1`, the values for the IC50 in series [1], in series [2] and in series [3] were 5.88 µM, more than 50 µM and more than 50 µM, respectively.

`CCN(CC)C(=O)c1ccccc1C(=O)Cc1ccccc1-c1ccccc1`: the IC50 in series [1] is 5.93 µM; in series [2] it was more than 50 µM; in series [3], 23.8 µM.

With `O=C(Cc1ccccc1-c1ccccc1)c1ccccc1C(=O)N1CCCCC1`, the IC50 in series [1] was 5.93 µM; in series [2], more than 50 µM; in series [3] it was more than 50 µM.
